From PubChem BioAssay AID588497 (NMMLSC, 2011)
This is a selection; strong and weak results do not stand in their true shares. Records with an inconclusive call do not appear. Calls of active or inactive are those of the source. Cut-off read from the data, not from the text of the source: active = inhibition above about 35% (passing the limit was not always enough); inconclusive = no clear call, values can overlap the other calls.

The compounds below were run on Botulinum neurotoxin type F light chain protease (Clostridium botulinum) (assay: BoNT/F light chain protease inhibitors, primary screen, biochemical, flow cytometry, MLPCN library (AID 588497; note: plate controls were buffer without enzyme for full effect and enzyme alone for no effect)). Conditions: Multiplex microsphere protease cleavage assay, at 10 µM, active compounds read high.
`CCC(=O)N(c1ccccc1)C1(COC)CCN(CCn2nnn(CC)c2=O)CC1` was tested, and the inhibition was inactive: 4.7%. In the case of `CCC(=O)N(c1ccccc1)C1(COC)CCN(CCc2cccs2)CC1`, the inhibition is reported as inactive: -1.3%.
